Assay: Fluorescence properties of the new compounds (excitation and emission wavelengths)
Type: physicochemical
Details: free compound
Source text: The excitation and emission wavelengths of the new compounds are described in Table 1. Optimal excitation wavelengths range from 247 to 433 nm and the corresponding emission wavelengths range from 392 to 505 nm. The quindoline derivatives with aminoproline backbone have the higher emission wavelengths. The phenylquinoline derivatives have the lower emission wavelengths.

CC(=O)N[C@@H](CCCNC(=O)CNC(=O)c1c2ccccc2nc2ccccc12)C(=O)N[C@@H](CCCNC(=O)CNC(=O)c1c2ccccc2nc2c1[nH]c1ccccc12)C(=O)N[C@@H](CCCNC(=O)CNC(=O)c1c2ccccc2nc2c1[nH]c1ccccc12)C(N)=O [Example 70, N^4-Acetyl-5-N-{2-(acridine-9-carboxamide)acetyl}ornithinyl-5-N-{2-(10H-indolo[3,2-b]quinoline-11-carboxamide)acetyl}ornithinyl-5-N-{2-(10H-indolo[3,2-b]quinoline-11-carboxamide)acetyl}ornithinamide]
Fluorescence emission (nm): 446 nm

N-((1,3-dihydroxybutan-2-ylcarbamoyl)methyl)-10H-indolo[3,2-d]quinoline-11-carboxamide [Compound 2c]
Fluorescence Excitation (nm): 374 nm
Fluorescence emission (nm): 446 nm

Reference: patent publication US20100129800A1, “POLYMERS AND THEIR USE AS FLUORESCENT LABELS” (priority 2007, published 2010)
